{"source": "patent US12171769B2", "about": "“Methods, compositions, and kits for treating and/or preventing a side effect associated with radiation and/or chemotherapy exposure” (BioMimetix JV, LLC, priority 2017, dated 2024)", "key": {"[1]": {"tested_on": "cognitive function", "details": "after 8 weeks of chemoradiation therapy compared to time 0", "method": "Four different loading doses were tested, which were: 7, 14, 28 and 42 mg, and the maintenance doses were half of the respective loading dose. The loading dose was administered prior to chemoradiation, and for the duration of treatment the respective maintenance doses were administered twice a week (i.e., a patient administered a 7 mg loading dose received two separate maintenance doses of 3.5 mg each week for 8 weeks.) The primary focus of this study is to determine the maximum tolerated dose of four dose levels. […] All subjects have a diagnosis of glioblastoma (WHO grade IV) and mean age is 62.7 years (range 54 years to 80 years).\nCognitive testing included Hopkins Verbal Learning Test-Revised (HVLT-R), Trails Making A and B Tests, and Controlled Oral Wood Association Test (COWA). […] This is notable because these are the primary cognitive tests that reveal poorer performance in multiple brain mestastases patients after whole brain radiation therapy."}, "[2]": {"tested_on": "FaDu (human pharyngeal carcinoma) cells", "details": "for percentage of mice with complete tumor regression: day 90 post-treatment, MnBuOE 0.6/0.3 mg/kg"}, "[3]": {"tested_on": "normal tissue injury following RT+cisplatin", "details": "12 weeks post-RT+cisplatin; MnBuOE 0.6/0.3 mg/kg for five weeks", "method": "Mice were treated with 1×9Gy+6 mg/kg cisplatin.\nA collimating cone that produced a 15 mm×40 mm radiation field was used to target the radiation beam to the salivary gland and oral cavity. The RT field included all major and minor salivary glands (located primarily in the neck region of mice), and the oral mucosa, including glands of the cheeks, lips and tongue. The target tissues were localized within the radiation field with a source-to-subject distance of 30.76 cm, using fluoroscopy at 40 kVp and 2.5 mA with a 2 mm Al filter. […] Control mice were anesthetized but not imaged fluoroscopically or irradiated.\nMucositis evaluation using fluorescence molecular tomography: As reported previously, we used ProSense 750EX (Perkin Elmer, Waltham, MA) to detect mucositis. ProSense 750EX is a near-infrared (NIR) imaging agent that is cleaved by cathepsins, a family of enzymes that are expressed during inflammation, (17). Mice were injected intravenously with 100 μL ProSense 750EX. Twenty-four hours after injection, mice were anesthetized via isoflurane and imaged using the Visen FMT 2500LX (Perkin Elmer). The ProSense 750EX signal was quantified using TrueQuant software (Perkin Elmer Life and Analytical Sciences, Downers Grove, IL)."}, "[4]": {"tested_on": "GSH/GSSG", "details": "MnBuOE alone, single 0.2 mg/kg dose; compared to saline and saline+RT controls", "method": "MnBuOE synthesis and administration: MnBuOE was synthesized as previously described. […] Mouse injections were administered subcutaneously, with MnBuOE dissolved in sterile saline. Mice received an initial dose of 0.2, 0.6, or 2.0 mg/kg, followed by three times per week (t.i.w.) maintenance doses of one-half of the loading dose (i.e., 0.1, 0.3, or 1.0 mg/kg, respectively) (termed 2/1, 0.6/0.3 and 0.2/0.1 dosing schedules)."}}, "note": "Read-outs that look alike come from different tables or passages of the source."}
{"substance": "manganese butoxyethyl pyridyl porphyrin [BMX-001]", "values": [{"measurement": "decline in cognitive function", "setting": "[1]", "result": "no measurable decline"}, {"measurement": "tumor growth relative to RT/cisplatin", "setting": "[2]; 0.6 mg/kg loading dose then t.i.w. 0.3 mg/kg, fractionated RT + cisplatin 6 mg/kg", "result": "did not significantly affect tumor growth"}, {"measurement": "tumor-free mice", "setting": "[2]; 90 days post-treatment, sham, 3×6Gy or 3×9 Gy groups", "result": "No mice were tumor-free"}, {"measurement": "percentage of mice with complete tumor regression", "setting": "[2]; 3×12Gy + cisplatin", "result": 33, "unit": "%"}, {"measurement": "percentage of mice with complete tumor regression", "setting": "[2]; 3×15Gy + cisplatin", "result": 40, "unit": "%"}, {"measurement": "percentage of mice with complete tumor regression", "setting": "[2]; 3×17Gy + cisplatin", "result": 50, "unit": "%"}, {"measurement": "mice that still had ulcers in the mouth and surrounding skin and had failed to gain weight post-RT", "setting": "[3]", "result": "1 out of 4"}, {"measurement": "GSH/GSSG ratio in tongue tissue", "setting": "[4]", "result": "slightly increased"}]}
